This assay concerns the target T1, Mouse PPARγ (Mus musculus, UniProt P37238).
T1 construct: endogenous in cells; host or cells: 3T3-L1 fibroblasts
Briefly: Mouse PPARγ assay (TransAM PPARγ ELISA, 3T3-L1 fibroblasts). The assay is classed as cell-based. The settings on record: Rosiglitazone 10 μM, 72 hrs. As for the experimental part:
The assay was designed as in the reference, Blood, 104(5), 1361-8, 2004, the disclosure of which is incorporated by reference for the teaching of the assay.
3T3-L1 fibroblasts were seeded in 6-well plates at a density of 4×10^4 cells/well and cultured in DMEM containing 10% calf serum. After 4-5 days, when the cells become confluent, each of test compound was added (from a 20 mM stock in DMSO) to the final concentration of 50 μM in DMEM supplemented with 10% FCS. […] The plates were incubated for 72 hrs at 37° C. in a CO2 incubator with fresh medium containing test substances added after first 48 hrs. After 72 hrs, the medium was removed; the cell layer was washed and processed for the PPARγ assay as per the instruction of the manufacturer (Active Motif, North America, California, USA). PPARγ activation was determined using 96-well ELISA assay as per the instruction manual (TransAM PPARγ. Active Motif, Cat 0.40196). Assay Readout was absorbance output from spectrophotometer for the mouse PPARγ assay. Luminescence data output was recorded for the human PPARγ assay.

Protein sequences, listed by entry. Tags and fused reporters are not part of them.
UniProt P37238, whole entry: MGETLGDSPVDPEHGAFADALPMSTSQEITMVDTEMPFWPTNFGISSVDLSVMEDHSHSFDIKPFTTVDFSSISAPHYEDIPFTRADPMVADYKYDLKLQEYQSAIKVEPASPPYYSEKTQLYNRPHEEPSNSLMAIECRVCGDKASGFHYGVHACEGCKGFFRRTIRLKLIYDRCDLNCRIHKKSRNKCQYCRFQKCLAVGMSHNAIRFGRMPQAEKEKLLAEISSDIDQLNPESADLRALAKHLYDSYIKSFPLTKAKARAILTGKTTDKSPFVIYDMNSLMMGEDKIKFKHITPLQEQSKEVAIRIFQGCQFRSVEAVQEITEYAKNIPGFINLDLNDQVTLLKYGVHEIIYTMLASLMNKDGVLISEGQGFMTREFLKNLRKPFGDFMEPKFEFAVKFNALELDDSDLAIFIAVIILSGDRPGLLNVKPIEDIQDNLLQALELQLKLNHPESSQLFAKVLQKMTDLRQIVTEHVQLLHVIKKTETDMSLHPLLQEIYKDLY

`CN(CCOc1ccc(CC2SC(=O)NC2=O)cc1)c1ccccn1` (stereo not shown) [Rosiglitazone, reference compound]: the “PPARγ activity (% of rosiglitazone)” value amounted to 100%.
